Assay results taken from PubChem BioAssay AID1839 (Johns Hopkins Ion Channel Center, 2009).
The entries are a selection whose mix differs from that of the whole data set. Active and inactive are the calls of the source.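 Rule for the calls: active = signal change above the mean of dofetilide-free buffer controls plus 3 SD, so a positive margin; inactive = the rest.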

Assay: nonspecific flux effects in parental CHO-K1, confirmation, counter-screen for hERG block protection project, cell-based, CHO-K1 parental line, FluxOR thallium flux (AID 1839);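 note: compounds applied alone with no dofetilide to cells lacking hERG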
Conditions: CHO-K1 parental cells, FluxOR thallium flux fluorescence; at 10 µM

Row | Structure (SMILES) | signal change vs control minus 3*SD hit threshold (margin above threshold, higher = more increase)
1 | Cc1ccc(NP(=O)(Oc2ccccc2F)Oc2ccccc2F)nc1 | inactive: -28%
